Measurements as given in patent US20250082765A1, “MOLECULES AS ANTICANCER AGENTS FOR TARGETED TREATMENT OF BREAST AND PROSTATE CANCER” (priority 2021, published 2025).
Where two headings read alike, the source gives them in different places.

What was measured:
[1] = female mice, 229.91 mg IV bolus, average of 6 mice
[2] = male mice, 227 mg IV bolus, average of 6 mice

Substance | average biodistribution of capecitabine in breast tissue ([1]; 0.5 hours) [ng/mL] | average biodistribution of capecitabine in breast tissue ([1]; 1 hour) [ng/mL] | average biodistribution of capecitabine in breast tissue ([1]; 2 hours) [ng/mL] | average biodistribution of capecitabine in prostate gland ([2]; 0.5 hours) [ng/mL] | average biodistribution of capecitabine in prostate gland ([2]; 1 hour) [ng/mL] | average biodistribution of capecitabine in prostate gland ([2]; 2 hours) [ng/mL]
capacitabine-citric acid-estradiol [citric acid-capecitabine-estradiol] | 16.1 | 17.21 | 17.49 |  |  | 
capecitabine-citric acid-dihydrotestosterone |  |  |  | 13.6 | 16.33 | 17.9
